pIC50: −log10 of the molar value. Where two headings read alike, the source gives them in different places.
Key:
hJAK2 = hJAK2 (Homo sapiens (Human), UniProt O60674); assay: hJAK2 LANCE TR-FRET enzymatic assay; type: biochemical; settings: read-out: JAK2 IC50
IKKε = IKKε (Homo sapiens (Human), UniProt Q14164); assay: IKKε TR-FRET enzymatic assay; type: biochemical; settings: read-out: IKKe IC50
TBK1 = TBK1 (Homo sapiens (Human), UniProt Q9UHD2); assay: TBK1 TR-FRET enzymatic assay;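 further: phosphorylation of a biotinylated Ser/Thr peptide by purified full-length recombinant TBK1, read by TR-FRET after 240 min at 25 °C, IC50 is the geometric mean of at least four runs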
[1] = TR-FRET, 2×Km ATP, geometric mean of minimum four determinations

Amino acid sequences for entries named in this document (tags omitted). A change or cut given only in a name is not applied to a line headed by its entry.
UniProt O60674: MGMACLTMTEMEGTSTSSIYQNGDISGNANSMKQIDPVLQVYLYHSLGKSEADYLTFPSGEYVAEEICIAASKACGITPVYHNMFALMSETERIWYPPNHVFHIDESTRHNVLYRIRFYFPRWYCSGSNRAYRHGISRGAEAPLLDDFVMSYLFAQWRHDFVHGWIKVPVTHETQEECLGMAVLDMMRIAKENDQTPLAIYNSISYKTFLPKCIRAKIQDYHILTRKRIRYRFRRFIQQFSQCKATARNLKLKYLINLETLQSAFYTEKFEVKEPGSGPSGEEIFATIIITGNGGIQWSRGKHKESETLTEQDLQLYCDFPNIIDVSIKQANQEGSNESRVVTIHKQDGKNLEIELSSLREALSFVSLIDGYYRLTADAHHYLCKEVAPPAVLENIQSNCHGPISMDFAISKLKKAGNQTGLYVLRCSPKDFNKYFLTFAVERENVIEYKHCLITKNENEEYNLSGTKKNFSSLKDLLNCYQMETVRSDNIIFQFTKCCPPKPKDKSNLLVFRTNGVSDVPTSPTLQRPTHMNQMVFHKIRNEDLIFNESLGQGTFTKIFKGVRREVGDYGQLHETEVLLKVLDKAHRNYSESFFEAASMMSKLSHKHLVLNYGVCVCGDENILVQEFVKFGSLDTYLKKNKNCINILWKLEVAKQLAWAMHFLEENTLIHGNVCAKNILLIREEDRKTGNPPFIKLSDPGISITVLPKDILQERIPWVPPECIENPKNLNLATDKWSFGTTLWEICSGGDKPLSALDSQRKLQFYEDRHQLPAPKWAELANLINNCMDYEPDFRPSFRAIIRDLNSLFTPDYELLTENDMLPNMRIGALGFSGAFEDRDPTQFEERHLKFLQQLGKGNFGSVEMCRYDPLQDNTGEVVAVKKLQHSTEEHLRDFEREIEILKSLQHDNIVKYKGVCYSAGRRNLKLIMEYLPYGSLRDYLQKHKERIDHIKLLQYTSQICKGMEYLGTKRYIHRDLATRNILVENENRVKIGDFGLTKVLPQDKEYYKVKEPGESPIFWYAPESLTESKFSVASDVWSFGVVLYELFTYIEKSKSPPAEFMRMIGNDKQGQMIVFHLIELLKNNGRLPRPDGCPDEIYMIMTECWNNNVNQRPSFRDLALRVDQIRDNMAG
UniProt Q14164: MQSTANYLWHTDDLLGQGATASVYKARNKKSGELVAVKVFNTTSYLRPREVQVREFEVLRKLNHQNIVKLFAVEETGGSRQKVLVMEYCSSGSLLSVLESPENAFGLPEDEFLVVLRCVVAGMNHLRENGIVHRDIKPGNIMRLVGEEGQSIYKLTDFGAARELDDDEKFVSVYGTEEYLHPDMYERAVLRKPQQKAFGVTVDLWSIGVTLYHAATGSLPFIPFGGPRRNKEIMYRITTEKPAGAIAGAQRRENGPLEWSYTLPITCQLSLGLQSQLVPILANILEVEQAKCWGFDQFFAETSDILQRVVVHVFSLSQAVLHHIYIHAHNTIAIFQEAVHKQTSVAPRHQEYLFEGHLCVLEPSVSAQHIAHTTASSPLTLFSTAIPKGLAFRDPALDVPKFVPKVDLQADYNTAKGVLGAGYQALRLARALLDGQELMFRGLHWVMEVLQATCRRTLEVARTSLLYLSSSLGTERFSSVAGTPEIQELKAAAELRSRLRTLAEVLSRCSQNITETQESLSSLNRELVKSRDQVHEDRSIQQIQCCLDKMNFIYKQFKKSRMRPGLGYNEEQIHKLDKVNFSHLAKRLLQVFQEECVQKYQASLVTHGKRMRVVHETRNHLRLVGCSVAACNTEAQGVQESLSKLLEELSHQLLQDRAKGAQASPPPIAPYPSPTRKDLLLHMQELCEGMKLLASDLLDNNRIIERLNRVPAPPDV
UniProt Q9UHD2: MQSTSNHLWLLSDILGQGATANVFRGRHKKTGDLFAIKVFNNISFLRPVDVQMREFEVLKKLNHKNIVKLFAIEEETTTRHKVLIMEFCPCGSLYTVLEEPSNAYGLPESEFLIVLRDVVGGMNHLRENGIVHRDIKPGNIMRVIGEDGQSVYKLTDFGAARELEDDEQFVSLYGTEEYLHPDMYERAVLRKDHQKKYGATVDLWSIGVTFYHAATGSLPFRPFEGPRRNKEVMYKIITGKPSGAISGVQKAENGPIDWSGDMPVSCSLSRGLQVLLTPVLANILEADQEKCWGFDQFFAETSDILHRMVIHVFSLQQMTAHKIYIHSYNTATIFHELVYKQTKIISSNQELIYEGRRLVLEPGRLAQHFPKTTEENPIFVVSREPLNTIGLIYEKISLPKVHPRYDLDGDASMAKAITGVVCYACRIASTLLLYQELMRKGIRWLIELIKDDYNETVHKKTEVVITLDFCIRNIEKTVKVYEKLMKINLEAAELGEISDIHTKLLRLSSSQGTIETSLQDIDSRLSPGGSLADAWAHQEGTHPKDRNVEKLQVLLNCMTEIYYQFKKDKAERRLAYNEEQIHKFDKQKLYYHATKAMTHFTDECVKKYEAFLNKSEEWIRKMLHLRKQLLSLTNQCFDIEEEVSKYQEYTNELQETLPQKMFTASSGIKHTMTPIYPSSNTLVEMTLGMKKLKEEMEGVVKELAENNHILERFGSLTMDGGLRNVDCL

SMILES | pIC50 (hJAK2) | pIC50 (TBK1) | pIC50 (IKKε) | pIC50 (IKKε; [1])
Cc1cc(Nc2ncnc(-c3ccc(O[C@H]4CCN(C(=O)[C@H](O)CO)C[C@H]4F)c(C#N)c3)n2)ccc1N1CCN(C2COC2)CC1 [Example 576, 2-(((3R,4S)-1-((R)-2,3-dihydroxypropanoyl)-3-fluoropiperidin-4-yl)oxy)-5-(4-((3-methyl-4-(4-(oxetan-3-yl)piperazin-1-yl)phenyl)amino)-1,3,5-triazin-2-yl)benzonitrile] |  | 8.70 |  | 8.70
N#Cc1cc(-c2ncnc(Nc3ccc(N4CCO[C@@H](CO)C4)cc3)n2)ccc1OC1CCOCC1 [Example 107, (R)-5-(4-((4-(2-(hydroxymethyl)morpholino)phenyl)amino)-1,3,5-triazin-2-yl)-2-((tetrahydro-2H-pyran-4-yl)oxy)benzonitrile] | 6.59 | 8.70 |  | 
N#Cc1cc(-c2ncnc(Nc3ccc(N4CCN(C5COC5)CC4)cc3)n2)ccc1OC1CCN(C(=O)c2ncc[nH]2)CC1(F)F (centres unmarked) [Example 163, 2-((3,3-difluoro-1-(1H-imidazole-2-carbonyl)piperidin-4-yl)oxy)-5-(4-((4-(4-(oxetan-3-yl)piperazin-1-yl)phenyl)amino)-1,3,5-triazin-2-yl)benzonitrile] |  | 8.22 | 8.22 | 
C[C@H](O)C(=O)N1CC[C@H](Oc2ccc(-c3ncnc(Nc4ccc([C@@H]5C(=O)N(C)CCN5C)cc4)n3)cc2C#N)[C@H](F)C1 [Example 518, 5-(4-((4-((R)-1,4-dimethyl-3-oxopiperazin-2-yl)phenyl)amino)-1,3,5-triazin-2-yl)-2-(((3R,4S)-3-fluoro-1-((S)-2-hydroxypropanoyl)piperidin-4-yl)oxy)benzonitrile] |  | 8.52 |  | 8.52
N#Cc1cc(-c2ncnc(Nc3ccc(N4CCOCC4)cc3)n2)ccc1NC(=O)[C@@H]1CCCN1 [Example 37, (S)—N-(2-cyano-4-(4-((4-morpholinophenyl)amino)-1,3,5-triazin-2-yl)phenyl)pyrrolidine-2-carboxamide] | 6.49 |  |  | 
Cc1n[nH]c(C)c1C(=O)N1CC[C@H](Oc2ccc(-c3ncnc(Nc4ccc(N5CCN(C6COC6)CC5)cc4)n3)cc2C#N)[C@H](F)C1 [Example 135, 2-(((3R,4S)-1-(3,5-dimethyl-1H-pyrazole-4-carbonyl)-3-fluoropiperidin-4-yl)oxy)-5-(4-((4-(4-(oxetan-3-yl)piperazin-1-yl)phenyl)amino)-1,3,5-triazin-2-yl)benzonitrile] |  | 8.15 | 8.15 | 
C[C@H](O)C(=O)N1CC[C@H](Oc2ccc(-c3ncnc(Nc4ccc(N5CCN(C6COC6)CC5)cc4)n3)cc2C#N)[C@H](F)C1 [Example 238, 2-(((3R,4S)-3-fluoro-1-((8)-2-hydroxypropanoyl)piperidin-4-yl)oxy)-5-(4-((4-(4-(oxetan-3-yl)piperazin-1-yl)phenyl)amino)-1,3,5-triazin-2-yl)benzonitrile] |  | 8.70 |  | 
COC(=O)N1CC[C@@H](Oc2ccc(-c3ncnc(Nc4ccc(N5CCN(C6COC6)CC5)cc4)n3)cc2C#N)C1 [Example 2, (R)-methyl 3-(2-cyano-4-(4-((4-(4-(oxetan-3-yl)piperazin-1-yl)phenyl)amino)-1,3,5-triazin-2-yl)phenoxy)pyrrolidine-1-carboxylate] | 6.18 |  |  | 

Continued, in another order:

pIC50 (hJAK2) | pIC50 (TBK1) | pIC50 (IKKε) | SMILES | pIC50 (IKKε; [1])
≤ 6.00 |  |  | C[C@H](O)C(=O)N1CC[C@H](Oc2ccc(-c3ncnc(Nc4ccc(C5CCN(C6COC6)CC5)cc4)n3)cc2C#N)[C@H](F)C1 [Example 311, 2-(((3R,4S)-3-fluoro-1-((S)-2-hydroxypropanoyl)piperidin-4-yl)oxy)-5-(4-((4-(1-(oxetan-3-yl)piperidin-4-yl)phenyl)amino)-1,3,5-triazin-2-yl)benzonitrile] | 
 | 6.00 | ≤ 6.00 | C[C@H]1CN(C2COC2)CCN1c1ccc(Nc2ncnc(-c3ccc(O[C@H]4CCN(C(=O)[C@@H]5CCC(=O)N5)C[C@H]4F)c(C#N)c3)n2)cc1 [Example 381, 2-(((3R,4S)-3-fluoro-1-((S)-5-oxopyrrolidine-2-carbonyl)piperidin-4-yl)oxy)-5-(4-((4-((S)-2-methyl-4-(oxetan-3-yl)piperazin-1-yl)phenyl)amino)-1,3,5-triazin-2-yl)benzonitrile] | 
≤ 6.00 |  |  | C[C@H]1C[C@H](Oc2ccc(-c3ncnc(Nc4ccc(N5CCN(C6COC6)CC5)cc4)n3)cc2C#N)[C@H](F)CN1C(=O)[C@H]1CCC(=O)N1 [Example 411, 2-(((2S,4S,5R)-5-fluoro-2-methyl-1-((R)-5-oxopyrrolidine-2-carbonyl)piperidin-4-yl)oxy)-5-(4-((4-(4-(oxetan-3-yl)piperazin-1-yl)phenyl)amino)-1,3,5-triazin-2-yl)benzonitrile] | 
6.38 |  | 8.70 | N#Cc1cc(-c2ncnc(Nc3ccc(C4CCNCC4)cc3)n2)ccc1O[C@H]1CCCC[C@H]1F (racemic) [Example 292, rac-2-(((1S,2R)-2-fluorocyclohexyl)oxy)-5-(4-((4-(piperidin-4-yl)phenyl)amino)-1,3,5-triazin-2-yl)benzonitrile] | 
≤ 6.00 |  |  | C[C@H]1C[C@H](Oc2ccc(-c3ncnc(Nc4ccc(N5CCN(C6COC6)CC5)cc4)n3)cc2C#N)[C@H](F)CN1C(=O)[C@@H]1CCC(=O)N1 [Example 416, 2-(((2S,4S,5R)-5-fluoro-2-methyl-1-((S)-5-oxopyrrolidine-2-carbonyl)piperidin-4-yl)oxy)-5-(4-((4-(4-(oxetan-3-yl)piperazin-1-yl)phenyl)amino)-1,3,5-triazin-2-yl)benzonitrile] | 

Source: US10040781B2, “Tank-binding kinase inhibitor compounds” (Gilead Sciences, Inc., priority 2014, dated 2018)
